Results reported in US20230303570A1, “KINASE INHIBITORS AND USES THEREOF” (ABM Therapeutics Corporation, priority 2020, published 2023).
pIC50: −log10 of the molar value.

Protein sequences, listed by entry. Tags and fused reporters are not part of them.
UniProt Q92918, whole entry: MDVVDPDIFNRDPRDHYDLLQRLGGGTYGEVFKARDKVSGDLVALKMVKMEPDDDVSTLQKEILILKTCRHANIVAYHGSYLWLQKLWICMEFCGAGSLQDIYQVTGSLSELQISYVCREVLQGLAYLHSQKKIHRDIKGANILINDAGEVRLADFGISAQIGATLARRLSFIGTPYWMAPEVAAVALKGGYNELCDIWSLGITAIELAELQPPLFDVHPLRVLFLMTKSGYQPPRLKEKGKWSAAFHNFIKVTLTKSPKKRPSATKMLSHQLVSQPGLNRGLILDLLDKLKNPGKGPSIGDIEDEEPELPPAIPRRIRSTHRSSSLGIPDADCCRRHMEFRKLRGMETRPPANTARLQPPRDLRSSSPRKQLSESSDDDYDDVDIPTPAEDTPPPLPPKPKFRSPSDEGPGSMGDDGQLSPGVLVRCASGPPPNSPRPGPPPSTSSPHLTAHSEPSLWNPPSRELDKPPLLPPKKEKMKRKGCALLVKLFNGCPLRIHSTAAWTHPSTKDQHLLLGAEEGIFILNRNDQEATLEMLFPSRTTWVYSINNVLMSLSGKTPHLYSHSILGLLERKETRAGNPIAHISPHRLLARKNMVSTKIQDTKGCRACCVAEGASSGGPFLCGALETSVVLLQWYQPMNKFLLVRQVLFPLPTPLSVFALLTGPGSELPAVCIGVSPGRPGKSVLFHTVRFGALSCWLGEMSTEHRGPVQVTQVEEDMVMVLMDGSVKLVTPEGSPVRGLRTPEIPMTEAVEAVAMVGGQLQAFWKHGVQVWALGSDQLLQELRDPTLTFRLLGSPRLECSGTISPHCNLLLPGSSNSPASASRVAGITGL

Molecular target: HPK1 (MAP4K1) (Homo sapiens, UniProt Q92918)
Assay: HPK1 (MAP4K1) kinase Lantha screen assay
Details: read-out: HPK1 IC50

## Cc1ccc(NC(=O)c2cc(C(F)(F)F)ccn2)cc1C1=Cc2cnc(-n3nccc3N)nc2N2CCN=C12
  pIC50: 5.00 to 7.00
